# Reference: patent US4190675A, “Method for the preparation of verbenone, myrtenal and pinocarveol and their therapeutical use” (priority 1976, dated 1980)
# Test: in vivo
# Conditions: mouse, iv
smiles,measurement,value
"CC1(C)C2CC=C(C=O)C1C2 (stereo not shown) [Myrtenal, myrtenal]",LD50,170 mg/kg
